# Apparent affinities of Ab-95 variants for a coronavirus HR2 peptide

Antigen: PDVDLGDISGINAS, a 14-residue peptide of the SARS-CoV-2 spike HR2 region.

Parent: Ab-95, a human scFv built as VH, the linker GGGGSGGGGSGGGGS, VL. Only the CDRs of the light chain vary.
VH: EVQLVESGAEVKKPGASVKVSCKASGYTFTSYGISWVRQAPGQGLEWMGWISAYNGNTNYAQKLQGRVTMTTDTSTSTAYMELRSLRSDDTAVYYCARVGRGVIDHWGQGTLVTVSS
VL: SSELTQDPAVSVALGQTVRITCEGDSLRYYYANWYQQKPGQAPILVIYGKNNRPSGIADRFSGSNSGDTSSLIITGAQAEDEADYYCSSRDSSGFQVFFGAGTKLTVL

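Phage display of a naive human antibody library on the peptide gave the parent. The library (AAYL52) carries one to three amino acid substitutions per variant, with no insertions or deletions. The assay is AlphaSeq: two haploid yeast populations carry antibody and antigen on their surface. Pairs that bind mate more often; barcode pairs of the diploids are counted by sequencing. Scores were corrected for input abundance and mapped to Kd with protein pairs of known affinity run in the same pool. Mating was done three times.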

Variants are written as CDR1, CDR2 and CDR3 of the light chain (limits as in the source). Parent: EGDSLRYYYAN, GKNNRPS, SSRDSSGFQVF. The Kd shown is the geometric mean over detected replicates; a lower Kd is a better binder. Where no diploid with the target was found in any replicate, the entry reads "no signal": below detection, most likely a poor binder, though not proof of it.

Kd (apparent) | replicates with signal | empty controls | CDR-L1 | CDR-L2 | CDR-L3
73 nM | 3 of 3 | 2 of 9 | EGDSLRYYYAN | GKNTVPS | SSRDSSCFQVF
no signal | 0 of 3 | 3 of 9 | EGDSLRYYYAN | KNNNRPS | TSRDSSGFQVF
38 µM | 1 of 3 | 3 of 9 | EGDKLAYYYAN | GKNNRPS | SKRDSSGFQVF
470 nM | 2 of 3 | 1 of 9 | EGDSLRYYYAN | GKWNRPE | SSRDSSGYQVF
no signal | 0 of 3 | 1 of 9 | EGDSTRYYYAN | EKNNRPV | SSRDSSGFQVF
no signal | 0 of 3 | 1 of 9 | EGDSLRYYYEN | NKNNRPS | SSRDSSGPQVF
36 nM | 3 of 3 | 1 of 9 | EGDSLRYYEAN | GKNNRPS | NSRDSSGFQKF
no signal | 0 of 3 | 3 of 9 | EKDSLSYYYAN | GVNNRPS | SSRDSSGFQVF
10 µM | 1 of 3 | 1 of 9 | EGDSLRCYYAN | DKNNRPS | SSRDSSGFVVF
100 nM | 3 of 3 | 3 of 9 | EGDSLRYNYAN | GKNNFPS | SSRYSSGFQVF
18 µM | 3 of 3 | 5 of 9 | NGDSLRYYYAN | RKNNRPS | YSRDSSGFQVF
160 nM | 3 of 3 | 6 of 9 | EGDQLRYYYAN | GKNVRPS | SKRDSSGFQVF
no signal | 0 of 3 | 0 of 9 | EGDSLRYYYAG | GKNNDPW | SSRDSSGFQVF
1.2 µM | 3 of 3 | 2 of 9 | EGHSLRGYYAN | GKNNRPS | SSRDSSGFQHF
13 nM | 3 of 3 | 4 of 9 | EGRSLRYYPAN | GKNNRPT | SSRDSSGFQVF
1.6 µM | 3 of 3 | 2 of 9 | EGDSLRYCYAN | GKNNRPK | SWRDSSGFQVF
5.2 µM | 1 of 3 | 5 of 9 | EGDGLRYYYAN | GWNNRPC | SSRDSSGFQVF
280 nM | 3 of 3 | 1 of 9 | RGDSLRYYYAN | GKQNRPL | SSRDSSGFQVF
11 µM | 2 of 3 | 3 of 9 | EGDSLRYYYAL | MKNNRPS | SSRDESGFQVF
320 nM | 3 of 3 | 0 of 9 | EGDSLRYYYTN | GKNNRPS | QSRDASGFQVF
2.2 µM | 3 of 3 | 2 of 9 | EGDSLRYTYAN | GKNNRPS | SSDDSSGFVVF
2.4 µM | 2 of 3 | 2 of 9 | EGDSLHMYYAN | GKNNRPS | SSRDSSWFQVF
350 nM | 3 of 3 | 1 of 9 | EGDSLRYYYAN | GKNNRPA | SSRMSSGFQVF
7.9 µM | 3 of 3 | 5 of 9 | EGDSLRYYYAN | GKCNRPS | SSRDSSGGQHF
130 µM | 1 of 3 | 1 of 9 | EWDSLRYYYAN | GKNCRPS | SSRDGSGFQVF
1.2 µM | 3 of 3 | 3 of 9 | EGDSLRYIYAN | GKNNRPS | SSWDSSGFQVF
360 nM | 3 of 3 | 1 of 9 | EGDSLRYYYAN | GKNNLPS | SSRDGSGFQVF
8.9 nM | 3 of 3 | 3 of 9 | EGDSLRSYQAN | GKNNRPS | SSRDTSGFQVF
87 nM | 3 of 3 | 3 of 9 | KGASLLYYYAN | GKNNRPS | SSRDSSGFQVF
1.5 µM | 3 of 3 | 1 of 9 | IGDSLRWYYAN | GKNNRCS | SSRDSSGFQVF
4.3 µM | 2 of 3 | 4 of 9 | EGDSLRYYYAN | GKNHRPS | SSRDGSGFQVF
no signal | 0 of 3 | 2 of 9 | EGDSLRGYSAN | GKNNRPS | SSRQSSGFQVF
2.0 µM | 1 of 3 | 1 of 9 | EGTKLRYYYAN | GKNNRPS | SSRDSSGFQVF
no signal | 0 of 3 | 1 of 9 | EGKSLRYYYAN | GKNNRPS | SNRQSSGFQVF
1.0 µM | 3 of 3 | 3 of 9 | EGDSLRYLYAN | GKNNRPS | TSRDMSGFQVF
no signal | 0 of 3 | 1 of 9 | EGDSLRYYYFN | GKNNRPS | SSRDSSWFQVE
240 nM | 3 of 3 | 3 of 9 | EGDSIRYYYAN | GKNVRPS | SSRDSSGFQVL
no signal | 0 of 3 | 1 of 9 | EGDSLRYYYKN | GKNNRPS | SSPESSGFQVF
no signal | 0 of 3 | 0 of 9 | ELDSLRYYYAN | GKNNRPD | SSRDSSGPQVF
3.3 µM | 2 of 3 | 4 of 9 | EGDSLRYYYAA | GKNNRPS | SSRDSSGFQVD
33 µM | 2 of 3 | 3 of 9 | EQDSLRYYYSN | GKNNRPS | SSRDSSGFQVQ
6.6 µM | 3 of 3 | 2 of 9 | EHDSLRYYYQN | GKNNRPS | SSRDSSGTQVF
130 µM | 1 of 3 | 3 of 9 | EYDSLRYYYAN | GKSNRPS | SSRDSSSFQVF
28 µM | 1 of 3 | 1 of 9 | EGDSLRYYYAN | GKNNEPS | SSRDSFGDQVF
1.3 µM | 3 of 3 | 3 of 9 | EGDSLRYYYAN | GKNCRPS | SSRSSSGKQVF
850 nM | 3 of 3 | 3 of 9 | EGESLSYYYAN | GKNNRKS | SSRDSSGFQVF

Top 5 of the variants detected in all replicates, tightest first:

{"CDR-L1": "EGDSLRSYQAN", "CDR-L2": "GKNNRPS", "CDR-L3": "SSRDTSGFQVF", "Kd (apparent)": "8.9 nM", "replicates with signal": "3 of 3", "empty controls": "3 of 9"}
{"CDR-L1": "EGRSLRYYPAN", "CDR-L2": "GKNNRPT", "CDR-L3": "SSRDSSGFQVF", "Kd (apparent)": "13 nM", "replicates with signal": "3 of 3", "empty controls": "4 of 9"}
{"CDR-L1": "EGDSLRYYEAN", "CDR-L2": "GKNNRPS", "CDR-L3": "NSRDSSGFQKF", "Kd (apparent)": "36 nM", "replicates with signal": "3 of 3", "empty controls": "1 of 9"}
{"CDR-L1": "EGDSLRYYYAN", "CDR-L2": "GKNTVPS", "CDR-L3": "SSRDSSCFQVF", "Kd (apparent)": "73 nM", "replicates with signal": "3 of 3", "empty controls": "2 of 9"}
{"CDR-L1": "KGASLLYYYAN", "CDR-L2": "GKNNRPS", "CDR-L3": "SSRDSSGFQVF", "Kd (apparent)": "87 nM", "replicates with signal": "3 of 3", "empty controls": "3 of 9"}

In this assay the parent's reference entry averaged 200 nM; its copy inside this library read 180 nM. Three control strains display no target. For library AAYL52, 28% of the pairings with them gave a signal, with a median of 8.2 µM and one signal in twenty below 800 nM, so weak values seen in few replicates may be background. Also given: how often the same scFv was detected with the empty control strains.

The measurements come from Engelhart et al. 2022 (doi:10.1038/s41597-022-01779-4) through the FLAb antibody collection.